Our source for the EC50 values is patent US8889677B2, “Substituted triazoles useful as mGlu5 receptor modulators” (Boehringer Ingellheim International GmbH, priority 2012, dated 2014).

Sequences of proteins named here, by UniProt entry; tags and fusion partners are left off. Residues count along the entry.
UniProt P41594, 21-1212 limits assumed: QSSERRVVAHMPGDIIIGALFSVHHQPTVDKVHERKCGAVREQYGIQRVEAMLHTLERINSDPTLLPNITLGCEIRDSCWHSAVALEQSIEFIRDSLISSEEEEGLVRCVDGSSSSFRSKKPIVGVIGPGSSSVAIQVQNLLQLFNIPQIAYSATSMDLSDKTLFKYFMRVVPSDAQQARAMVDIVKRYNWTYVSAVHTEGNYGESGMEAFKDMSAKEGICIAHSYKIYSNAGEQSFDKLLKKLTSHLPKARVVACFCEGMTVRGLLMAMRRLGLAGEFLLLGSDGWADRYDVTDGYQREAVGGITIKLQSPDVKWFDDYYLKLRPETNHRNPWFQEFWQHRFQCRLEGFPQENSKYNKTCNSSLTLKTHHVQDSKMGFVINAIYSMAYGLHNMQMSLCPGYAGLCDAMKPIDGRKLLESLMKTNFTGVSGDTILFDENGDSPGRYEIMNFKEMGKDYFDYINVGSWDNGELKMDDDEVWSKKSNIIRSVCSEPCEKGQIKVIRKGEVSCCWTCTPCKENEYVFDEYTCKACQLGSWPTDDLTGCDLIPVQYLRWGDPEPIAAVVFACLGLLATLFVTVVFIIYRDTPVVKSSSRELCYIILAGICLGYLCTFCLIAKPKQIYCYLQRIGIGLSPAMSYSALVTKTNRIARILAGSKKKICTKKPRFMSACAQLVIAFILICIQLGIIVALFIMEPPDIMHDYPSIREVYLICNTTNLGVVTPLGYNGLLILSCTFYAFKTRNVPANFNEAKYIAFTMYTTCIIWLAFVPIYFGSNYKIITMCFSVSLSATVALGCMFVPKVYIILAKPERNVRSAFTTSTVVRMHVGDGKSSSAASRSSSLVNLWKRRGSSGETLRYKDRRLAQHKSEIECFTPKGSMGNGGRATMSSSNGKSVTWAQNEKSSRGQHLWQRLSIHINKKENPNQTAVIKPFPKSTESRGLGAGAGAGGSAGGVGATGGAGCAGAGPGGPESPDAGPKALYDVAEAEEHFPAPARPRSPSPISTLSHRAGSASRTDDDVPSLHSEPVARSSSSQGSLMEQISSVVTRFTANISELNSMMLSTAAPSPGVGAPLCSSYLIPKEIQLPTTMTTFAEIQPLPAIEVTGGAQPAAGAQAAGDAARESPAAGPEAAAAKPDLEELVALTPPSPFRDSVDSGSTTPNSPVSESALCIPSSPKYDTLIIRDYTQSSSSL

The target of this experiment is human recombinant mGluR5 (Homo sapiens, UniProt P41594). Briefly: positive modulation of mGluR5, calcium based FLIPR assay in HEK 293 cells. Conditions: HEK 293 cell line expressing human recombinant mGluR5; EC50 of the modulation of the glutamate response (glutamate approx. 5% basal stimulation); peak height of Ca release fluorescence signal. The method, then:
The positive modulation of mGluR5 is measured in a HEK 293 cell line expressing human recombinant mGluR5 and is detected with calcium based FLIPR assay. The cells are cultured with DMEM supplemented with 10% FCS, 2 μg/mL tetracycline, 100 μg/mL hygromycin and 500 μg/mL gneticin. The cell culture media is exchanged for tetracycline-free cell culture media 3-7 days before the assay. One day before the assay the cell culture medium is exchanged to DMEM without glutamine and phenol red and supplemented with 10% FCS, 100 μg/mL hygromycin and 500 μg/mL geneticin. On the assay day, the medium of the subconfluent cultures is removed and the cells are detached by addition of 2.5 ml EDTA (0.02%) per 175 cm2 culture flask for 1 minute. […]
20 μl of each compound solution are then transferred to the assay plate and the Ca2+ kinetic is measured to determine any intrinsic compound activity. After 5 min incubation in the FLIPR device, the second stimulation with 20 μl of glutamate in Ringer solution (glutamate concentration adjusted to approximately 5% basal stimulation of the maximal possible glutamate effect) is added and the kinetic Ca2+ response of the wells was measured for the modulation effect.
The peak height of the Ca release related fluorescence signal (9-66) is used for the EC50. The EC50 of the modulation is calculated over a nonlinear regression with GraphPad Prism (Table 1).

In the case of `COc1cc(-c2nc(-c3ccc(F)cc3)nn2CC(=O)N2CCN(c3ccccn3)CC2)ccc1F`, the EC50 stood at 679 nM.

By EC50 is commonly meant the concentration that produces a half-maximal response.
